This passage reports IC50 and EC50 results from ChEMBL document CHEMBL2417532, “Toxoflavins and deazaflavins as the first reported selective small molecule inhibitors of tyrosyl-DNA phosphodiesterase II” (J Med Chem, 2013).

In test [1] the target is T1, Tyrosyl-DNA phosphodiesterase 2 (Homo sapiens, UniProt O95551).
T1 sequence (O95551 whole entry): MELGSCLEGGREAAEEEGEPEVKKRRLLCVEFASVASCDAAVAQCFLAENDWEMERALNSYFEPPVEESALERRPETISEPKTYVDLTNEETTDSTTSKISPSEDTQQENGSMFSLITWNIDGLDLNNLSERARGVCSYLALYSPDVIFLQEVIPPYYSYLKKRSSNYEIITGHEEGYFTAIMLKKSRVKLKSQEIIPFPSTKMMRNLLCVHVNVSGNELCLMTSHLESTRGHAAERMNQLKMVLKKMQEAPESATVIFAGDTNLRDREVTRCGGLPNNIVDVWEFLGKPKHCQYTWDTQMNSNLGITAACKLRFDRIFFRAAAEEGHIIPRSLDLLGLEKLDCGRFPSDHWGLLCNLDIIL
Kind of test: Inhibition of TDP2 (unknown origin) using 5'-Y-TCCGTTGAAGCCTGCTTT-3' as substrate after 60 mins. The method in brief: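 TDP2 in 25 mM Hepes pH 8.0, 10 mM MgCl2, 130 mM KCl, 1 mM DTT, 0.03% BSA, 1% DMSO. Started with 5′-phosphotyrosyl oligonucleotide and run 60 min at 25 °C. Values are geometric means of at least two independent determinations.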

Test [2] addresses T1, Tyrosyl-DNA phosphodiesterase 2. Nature of the test: Inhibition of TDP2 (unknown origin) using 4-nitrophenyl phenylphosphonate as substrate after 60 mins.

`O=c1nc2n(-c3ccccc3)c3ccccc3cc-2c(=O)[nH]1`: the IC50 in test [1] was greater than 30 µM. Moreover, the concentration for a half-maximal effect (EC50) in test [2] was greater than 30 µM.
